The values below are quoted from earlier work in PMC9212491 (Antiviral Research, 2022).

Molecules are shown by their SMILES.

The data set deals with JAK1. The note with it: ref Stebbing et al.,2021; Klaeger et al.,2017; cited from earlier work.

In the case of `CCS(=O)(=O)N1CC(CC#N)(n2cc(-c3ncnc4[nH]ccc34)cn2)C1` [Baricitinib, baricitinib], the “JAK1 (Other targets, measure not stated)” value is listed as 5.9 nM.
